Assays:
Format in all cases: cell-based
[1] = system: MM.1S; experiment: CCK-8 proliferation, MM.1S; conditions: Homo sapiens, MM1.S, 72 hours, read-out: Inhibitory activity (IC50) on tumor cell proliferation, MM1S
Experimental: (§1) The tumor cells used herein were cultured in a cell culture medium listed in table A1 at 37°C in an incubator with 5% CO2. Prior to experimentation, all cell lines used were correctly identified by STR profiling, and tested negative for mycoplasma contamination using a mycoplasma detection kit through routine screenings. Table A1. Tumor cells and cell culture medium used in the present disclosure
(§2) IC50 values of the compounds of the present disclosure (including the compounds in Table 1, and compounds of examples) were measured using the Meilun Cell Counting Kit-8 kit from Dalian Meilun Biotech Co., Ltd. Assay details are as follows: tumor cells were seeded in a 96-well plate at a density listed in Table A2. After 24h, 100 µL of the inoculated cells were treated with 0.5µL of the compounds of the present disclosure (including the compounds in Tables 1 and 2, and compounds of examples) at 10 different successively decreasing concentrations (starting at the highest concentration of 10µM; 5-fold serial dilutions). […] The growth inhibition of the compounds of the present disclosure on cells was plotted by Prism Graphpad software, and the IC50 values of the compounds of the present disclosure were calculated therefrom. […]

[2] = system: MCF7; experiment: CCK-8 proliferation, MCF7 (MCF-7); conditions: Homo sapiens, read-out: Inhibitory activity (IC50) on tumor cell proliferation, MCF-7
Experimental: as §1, §2

[3] = system: MDA-MB-231; experiment: CCK-8 proliferation, MDA-MB-231; conditions: Homo sapiens, 96 hours, read-out: Inhibitory activity (IC50) on tumor cell proliferation, MDA-MB-231
Experimental: as §1, §2

Nc1cccc2c1CN(C1CCC(=O)NC1=O)C2=O (stereo not drawn) [lenalidomide, reference compound]
IC50 [1]: 5 to 10 µM | IC50 [2]: > 10 µM | IC50 [3]: > 10 µM

Source: patent EP4678638A1, “NEW E3 UBIQUITIN LIGASE LIGAND, PROTEIN DEGRADATION AGENT AND USE THEREOF” (priority 2023, dated 2024)
